These results are taken from PMC7294525 (Cell Research, 2020).

By UniProt entry, the sequences of proteins in these tests, tags left out. Residues count along the entry.
UniProt Q66478, 1549-1731: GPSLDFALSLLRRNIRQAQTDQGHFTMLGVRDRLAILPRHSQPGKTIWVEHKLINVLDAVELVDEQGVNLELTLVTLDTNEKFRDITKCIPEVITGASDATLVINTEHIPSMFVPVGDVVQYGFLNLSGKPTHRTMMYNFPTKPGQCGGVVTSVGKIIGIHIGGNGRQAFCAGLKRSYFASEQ

For test [1], the target named is T1, EV-A71 2A protease (Human enterovirus 71, UniProt Q66478).
T1 sequence (Q66478 863-1012 limits assumed): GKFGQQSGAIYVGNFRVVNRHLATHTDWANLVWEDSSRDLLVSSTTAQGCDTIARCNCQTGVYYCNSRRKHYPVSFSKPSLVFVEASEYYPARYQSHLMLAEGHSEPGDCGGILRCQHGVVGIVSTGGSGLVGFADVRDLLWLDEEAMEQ
It counts as biochemical. The settings on record: read-out: IC50 against EV-A71 2A protease.

In test [2] the target is EV-A71 3C protease (Human enterovirus 71, UniProt Q66478). It counts as biochemical. The settings on record: read-out: IC50 against EV-A71 3C protease.

Take calpain inhibitor XII [compound 62]: the IC50 in test [1] and in test [2] was greater than 20 µM in each case.
For the substance calpain inhibitor II [compound 61], the IC50 in test [1] and in test [2] was greater than 20 µM throughout.
